This note sets out measurements from patent US11440923B2, “Substituted macrocyclic indole derivatives” (Bayer Aktiengesellschaft, priority 2017, dated 2022).

One experiment concerns MV-4-11 cells. Kind of experiment: Antiproliferation assay MV-4-11 (Assay 7). To be noted: read-out: Antiproli MV-4-11 IC50 median; 72 h, CellTiter-Glo. A general note: ATP-based viability assays read luminescence as a measure of living cells.
The subject of the next experiment is AMO-1 cells. In words: Antiproliferation assay AMO-1 (Assay 7). The format is cell-based. The following applies: read-out: Antiproli AMO-1 IC50 median; 72 h, CellTiter-Glo.
The subject of another experiment is HMC-1-8 cells. In words: Antiproliferation assay HMC-1-8 (Assay 7). The format is cell-based. The following applies: read-out: Antiproli HMC-1-8 IC50 median; 72 h, CellTiter-Glo.
In another experiment the test system is A2780 cells. Kind of experiment: Antiproliferation assay A2780 (Assay 7). The following applies: read-out: Antiproli A2780 IC50 median; 72 h, CellTiter-Glo.
The next experiment has as its target MCL-1 (Homo sapiens (Human), UniProt Q07820, K194A/K197A/R201A). Kind of experiment: Protein-compound interaction assay (SPR assay, Assay 9). The format is binding.

SMILES strings stand for the structures.

On to `Cc1c2c(nn1C)C(CCN1CCOCC1)OCCCCn1c(C(=O)O)c(CCCOc3cccc4ccccc34)c3ccc(F)c-2c31` (stereo not shown), for which the concentration for half-maximal inhibition (IC50) (commonly the midpoint of a concentration-inhibition curve) with MV-4-11 cells stood at 244 nM; in the experiment with AMO-1 cells, 221 nM; in the experiment on HMC-1-8 cells it was 1430 nM; with A2780 cells it was 2840 nM. Further, the “koff (geometric mean)” value at MCL-1 (25° C.) is reported as 2.5 E−2 1/s. Also, on MCL-1 (25° C.), the “kon (geometric mean)” value is given as 2.9 E7 1/M 1/s. On MCL-1 (read-out: KD (geometric mean), 25° C.), the Kd (in general, the concentration at which binding is half-saturated) is 0.84 nM.
